According to US20210222208A1, “SUGAR-DERIVED STIMULANT FOR ENHANCEMENT OF AEROBIC AND ANAEROBIC FERMENTATION PERFORMANCE” (priority 2018, published 2021):

Test system: S. cerevisiae M11205
Assay type: cell-based, Saccharomyces cerevisiae

Compound: OCCCCO[C@H]1O[C@H](CO)[C@@H](O)[C@H](O)[C@H]1O [FS-1, 4-hydrosbutyl glucopyranoside]
- Ethanol yield and lag phase compared with CE-1, CE-2 and control: distinct enhancement for ethanol yield as well as the elimination of the lag phase
- Time to complete conversion of sugars to ethanol: ≤ 24 h
